# Biological target: E3 ubiquitin-protein ligase Mdm2 [1-188] (Homo sapiens, UniProt Q00987)
# Chains of the proteins cited; added tags and fusions are not shown. Residues count along the entry.
# UniProt Q00987, 1-188: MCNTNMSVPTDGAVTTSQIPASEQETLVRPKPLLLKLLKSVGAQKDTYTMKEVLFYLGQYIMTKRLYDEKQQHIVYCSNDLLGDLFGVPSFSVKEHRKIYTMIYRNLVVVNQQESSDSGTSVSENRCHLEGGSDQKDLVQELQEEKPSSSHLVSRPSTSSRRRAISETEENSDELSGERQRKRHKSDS
compound,measurement,value
"CN1C(=O)[C@@H](CCN2CCOCC2)O[C@H](c2ccc(Cl)cc2)[C@@H]1c1ccc(Cl)cc1 [US11407721, Example 40]",IC50,19.1 µM
